Data reported in ChEMBL document CHEMBL1240345, “Zebrafish chemical screening reveals an inhibitor of Dusp6 that expands cardiac cell lineages” (Nat Chem Biol, 2009).
The source made the active and inactive calls.

Amino acid sequences for entries named in this document (tags omitted). A change or cut given only in a name is not applied to a line headed by its entry.
UniProt P51452: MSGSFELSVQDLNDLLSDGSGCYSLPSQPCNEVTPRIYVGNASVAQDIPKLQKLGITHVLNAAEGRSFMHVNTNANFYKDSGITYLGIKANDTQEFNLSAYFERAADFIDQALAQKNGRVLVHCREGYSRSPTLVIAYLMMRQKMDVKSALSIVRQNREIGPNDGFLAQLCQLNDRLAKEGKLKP

Columns and labels:
Settings in all cases: 100 uM
[1] = target: T1, M-phase inducer phosphatase 2 (Homo sapiens) (UniProt P30305)
T1 sequence (whole entry): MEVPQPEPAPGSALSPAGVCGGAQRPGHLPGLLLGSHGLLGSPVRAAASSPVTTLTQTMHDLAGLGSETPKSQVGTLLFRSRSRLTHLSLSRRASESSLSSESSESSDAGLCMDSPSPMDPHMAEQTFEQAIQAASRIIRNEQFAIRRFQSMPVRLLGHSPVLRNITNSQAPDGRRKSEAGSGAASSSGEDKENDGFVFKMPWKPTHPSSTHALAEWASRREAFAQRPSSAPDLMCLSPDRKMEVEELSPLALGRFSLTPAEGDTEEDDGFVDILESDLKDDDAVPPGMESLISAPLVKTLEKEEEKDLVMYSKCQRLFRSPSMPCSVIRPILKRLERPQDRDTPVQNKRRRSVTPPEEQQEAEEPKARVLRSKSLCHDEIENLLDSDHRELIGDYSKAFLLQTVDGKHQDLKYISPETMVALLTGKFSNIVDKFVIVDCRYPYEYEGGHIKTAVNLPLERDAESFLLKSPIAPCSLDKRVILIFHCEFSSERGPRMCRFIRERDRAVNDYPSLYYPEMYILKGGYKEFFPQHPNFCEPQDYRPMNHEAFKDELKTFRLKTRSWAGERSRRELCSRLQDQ

[2] = target: T2, Tyrosine-protein phosphatase non-receptor type 1 (Homo sapiens) (UniProt P18031)
T2 sequence (whole entry): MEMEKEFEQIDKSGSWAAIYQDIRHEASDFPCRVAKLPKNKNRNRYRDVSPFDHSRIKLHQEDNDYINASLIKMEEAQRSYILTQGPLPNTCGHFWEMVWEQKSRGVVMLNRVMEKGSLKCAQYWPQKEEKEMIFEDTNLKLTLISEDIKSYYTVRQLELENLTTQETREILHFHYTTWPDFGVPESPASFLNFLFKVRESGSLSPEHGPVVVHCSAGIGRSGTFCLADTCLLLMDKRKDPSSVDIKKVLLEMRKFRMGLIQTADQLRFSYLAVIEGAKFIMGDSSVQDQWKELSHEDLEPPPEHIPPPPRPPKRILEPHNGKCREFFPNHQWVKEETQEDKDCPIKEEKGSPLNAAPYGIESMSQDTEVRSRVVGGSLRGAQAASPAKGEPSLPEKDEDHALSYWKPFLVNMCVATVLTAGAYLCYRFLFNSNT

[3] = target: Dual specificity protein phosphatase 3 (Homo sapiens, UniProt P51452)

Measured: inhibition

O=C1/C(=C/c2ccccc2)C(NC2CCCCC2)c2ccccc21 (stereo not drawn)
inactive: [1] | [2] | [3]
